The values below come from publication PMC11066837.

Test [1] concerns the target 14-3-3τ labeled with Alexa Fluor 568 (human) (UniProt P27348). Nature of the test: MST; 338 nM total 14-3-3τ of which 50 nM labeled (14-3-3τ-AF568), constant; αS at increasing concentrations spanning the regime of αS multimerization; 10 mM Tris pH 7.4, 10 mM NaCl, 23 °C; Hill fit; concentration axis is total αS.
The target is the same in test [2]. The test is described as follows: MST; 7 nM 14-3-3τ-AF568 (50 nM total 14-3-3τ), constant; αS30 increased up to 2.1 μM (αS30 concentration, not monomer equivalent); 15 h incubation at RT, measured at 25 °C; Hill fit.

On to “Recombinant human α-synuclein wild-type (from UniProt P37840 1-140) (natural protein)”, for which the EC50 in test [1] is 519 nM.
“αS30 oligomers (from UniProt P37840 1-140) (complex)”: the EC50 in test [2] was determined as 7 nM.
